Values of other authors as cited in US7415358B2, “Molecular toxicology modeling” (Ocimum Biosolutions, Inc., priority 2001, dated 2008).

Tested on: tubulin
Conditions: cited from earlier work

**Q.** For COc1cc2c(c(OC)c1OC)-c1ccc(OC)c(=O)cc1[C@@H](NC(C)=O)CC2 [COLCHICINE], which total tubulin levels is on record?
**A.** total tubulin levels decreased twofold
